Results from ChEMBL document CHEMBL1152717, “Discovery of mu-opioid selective ligands derived from 1-aminotetralin scaffolds made via metal-catalyzed ring-opening reactions” (Bioorg Med Chem Lett, 2009).

Amino acid sequences for entries named in this document (tags omitted). A change or cut given only in a name is not applied to a line headed by its entry.
UniProt P41145: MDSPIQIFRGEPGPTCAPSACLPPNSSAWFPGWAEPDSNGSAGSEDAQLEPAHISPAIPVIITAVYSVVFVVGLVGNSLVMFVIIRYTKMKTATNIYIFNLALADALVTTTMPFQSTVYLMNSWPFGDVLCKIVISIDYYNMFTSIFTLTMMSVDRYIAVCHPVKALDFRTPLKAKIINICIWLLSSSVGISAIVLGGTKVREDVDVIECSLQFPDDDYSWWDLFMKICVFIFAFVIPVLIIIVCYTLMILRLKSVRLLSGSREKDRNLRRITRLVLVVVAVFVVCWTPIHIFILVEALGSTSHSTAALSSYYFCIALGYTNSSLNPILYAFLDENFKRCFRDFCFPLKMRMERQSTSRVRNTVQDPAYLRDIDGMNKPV
UniProt P35372, whole entry, looked up: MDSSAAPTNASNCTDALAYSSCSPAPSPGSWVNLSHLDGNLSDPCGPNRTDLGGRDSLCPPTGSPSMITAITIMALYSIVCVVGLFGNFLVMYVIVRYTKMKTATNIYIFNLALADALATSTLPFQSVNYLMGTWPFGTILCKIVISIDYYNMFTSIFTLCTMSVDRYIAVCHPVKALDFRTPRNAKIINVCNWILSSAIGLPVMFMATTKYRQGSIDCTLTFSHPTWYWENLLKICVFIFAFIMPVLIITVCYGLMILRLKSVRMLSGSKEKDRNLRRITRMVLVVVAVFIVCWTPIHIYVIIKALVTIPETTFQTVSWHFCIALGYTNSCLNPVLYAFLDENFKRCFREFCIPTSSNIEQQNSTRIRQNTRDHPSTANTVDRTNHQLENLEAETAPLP
UniProt P41143, whole entry, looked up: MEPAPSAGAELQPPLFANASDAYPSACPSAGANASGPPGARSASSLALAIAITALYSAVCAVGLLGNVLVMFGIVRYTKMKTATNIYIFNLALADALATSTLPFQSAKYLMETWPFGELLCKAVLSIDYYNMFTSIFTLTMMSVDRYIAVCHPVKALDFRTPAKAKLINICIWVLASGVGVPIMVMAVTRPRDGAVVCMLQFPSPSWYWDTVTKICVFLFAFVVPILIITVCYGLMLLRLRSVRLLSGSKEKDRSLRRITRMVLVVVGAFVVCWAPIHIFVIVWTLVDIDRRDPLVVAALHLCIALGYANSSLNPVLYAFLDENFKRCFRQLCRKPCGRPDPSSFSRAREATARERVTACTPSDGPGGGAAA

Legend:
[1] = target: Kappa-type opioid receptor (Homo sapiens, UniProt P41145); assay: Displacement of [125I]U69593 from human cloned kappa opioid receptor
[2] = target: T1, Mu-type opioid receptor (Homo sapiens, UniProt P35372); assay: Displacement of [125I]FK33824 from human cloned mu opioid receptor
[3] = target: T1, Mu-type opioid receptor
[4] = target: Delta-type opioid receptor (Homo sapiens, UniProt P41143); assay: Displacement of [125I]deltorphin 2 from human cloned delta opioid receptor

Structure (SMILES) | IC50 [1] | IC50 [2] | EC50 [3] | IC50 [4]
COCCN(C(=O)COc1ccc(Cl)cc1)C1c2cc(OC)c(OC)cc2CCC1N(C)C (stereo unspecified) | 0.155 µM | 0.245 µM | > 90 µM | > 10 µM
COCCN(C(=O)Cc1ccc(Cl)cc1)C1c2cc(OC)c(OC)cc2CCC1N(C)C (stereo unspecified) | 0.922 µM | 1.12 µM | > 90 µM | > 10 µM
COCCN(C(=O)Cc1ccccc1Br)C1c2cc(OC)c(OC)cc2CCC1N(C)C (stereo unspecified) | 1.01 µM | 4.83 µM |  | > 10 µM
